By UniProt entry, the sequences of proteins in these tests, tags left out.
UniProt P09874, whole entry: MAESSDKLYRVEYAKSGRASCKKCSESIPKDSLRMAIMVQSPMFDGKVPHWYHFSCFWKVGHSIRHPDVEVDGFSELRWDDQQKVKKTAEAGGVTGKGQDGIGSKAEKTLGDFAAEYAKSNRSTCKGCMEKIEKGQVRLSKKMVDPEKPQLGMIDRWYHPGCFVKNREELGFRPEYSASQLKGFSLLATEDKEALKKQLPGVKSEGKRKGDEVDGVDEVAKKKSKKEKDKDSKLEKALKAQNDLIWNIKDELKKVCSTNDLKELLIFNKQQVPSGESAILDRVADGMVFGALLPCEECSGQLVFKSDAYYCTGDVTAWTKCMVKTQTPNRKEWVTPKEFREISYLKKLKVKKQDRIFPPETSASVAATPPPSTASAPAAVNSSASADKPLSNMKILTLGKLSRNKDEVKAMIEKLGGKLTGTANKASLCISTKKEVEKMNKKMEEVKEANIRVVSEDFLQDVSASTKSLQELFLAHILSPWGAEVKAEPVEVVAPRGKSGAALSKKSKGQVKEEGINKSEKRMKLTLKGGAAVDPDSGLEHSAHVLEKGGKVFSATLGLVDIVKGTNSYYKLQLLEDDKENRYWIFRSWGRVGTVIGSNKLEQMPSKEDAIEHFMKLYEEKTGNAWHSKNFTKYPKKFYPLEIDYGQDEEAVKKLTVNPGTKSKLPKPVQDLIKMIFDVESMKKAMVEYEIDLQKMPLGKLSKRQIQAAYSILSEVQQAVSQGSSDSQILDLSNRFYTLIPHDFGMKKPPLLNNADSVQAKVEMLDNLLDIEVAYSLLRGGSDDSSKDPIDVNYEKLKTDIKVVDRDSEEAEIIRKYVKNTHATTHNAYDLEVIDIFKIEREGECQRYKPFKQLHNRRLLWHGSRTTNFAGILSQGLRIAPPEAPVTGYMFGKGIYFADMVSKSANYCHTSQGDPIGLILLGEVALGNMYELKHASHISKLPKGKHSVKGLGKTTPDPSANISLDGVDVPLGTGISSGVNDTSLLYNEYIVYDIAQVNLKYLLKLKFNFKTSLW

This assay has as its target Poly [ADP-ribose] polymerase 1 (Homo sapiens, UniProt P09874). Description: Ratio of AZD2281 IC50 to compound IC50 for human recombinant PARP1.
Take `O=C1NCC2c3c(cccc31)CCN2C(=O)c1cc(Cc2n[nH]c(=O)c3c2CCCC3)ccc1F` (stereo not drawn): the Ratio IC50 is 2.
Then `O=C1NCC2c3c(cccc31)CCN2C(=O)c1cc(Cc2n[nH]c(=O)c3ccccc23)ccc1F` (stereo not drawn), with 13; and `O=C1NCC2c3c(cccc31)CCN2C(=O)C1CCN(C(=O)c2cc(Cc3n[nH]c(=O)c4ccccc34)ccc2F)CC1` (stereo not drawn), with 2.

The values above are taken from ChEMBL document CHEMBL2321760, “Design, synthesis, and biological evaluation of a series of benzo[de][1,7]naphthyridin-7(8H)-ones bearing a functionalized longer chain appendage as novel PARP1 inhibitors” (J Med Chem, 2013).
